Measurements reported in patent publication US10370360B2, “Small-molecule inhibitors targeting discoidin domain receptor 1 and uses thereof” (priority 2014, dated 2019).

Sequences of proteins named here, by UniProt entry; tags and fusion partners are left off. Residues count along the entry.
UniProt P10721, 26-976: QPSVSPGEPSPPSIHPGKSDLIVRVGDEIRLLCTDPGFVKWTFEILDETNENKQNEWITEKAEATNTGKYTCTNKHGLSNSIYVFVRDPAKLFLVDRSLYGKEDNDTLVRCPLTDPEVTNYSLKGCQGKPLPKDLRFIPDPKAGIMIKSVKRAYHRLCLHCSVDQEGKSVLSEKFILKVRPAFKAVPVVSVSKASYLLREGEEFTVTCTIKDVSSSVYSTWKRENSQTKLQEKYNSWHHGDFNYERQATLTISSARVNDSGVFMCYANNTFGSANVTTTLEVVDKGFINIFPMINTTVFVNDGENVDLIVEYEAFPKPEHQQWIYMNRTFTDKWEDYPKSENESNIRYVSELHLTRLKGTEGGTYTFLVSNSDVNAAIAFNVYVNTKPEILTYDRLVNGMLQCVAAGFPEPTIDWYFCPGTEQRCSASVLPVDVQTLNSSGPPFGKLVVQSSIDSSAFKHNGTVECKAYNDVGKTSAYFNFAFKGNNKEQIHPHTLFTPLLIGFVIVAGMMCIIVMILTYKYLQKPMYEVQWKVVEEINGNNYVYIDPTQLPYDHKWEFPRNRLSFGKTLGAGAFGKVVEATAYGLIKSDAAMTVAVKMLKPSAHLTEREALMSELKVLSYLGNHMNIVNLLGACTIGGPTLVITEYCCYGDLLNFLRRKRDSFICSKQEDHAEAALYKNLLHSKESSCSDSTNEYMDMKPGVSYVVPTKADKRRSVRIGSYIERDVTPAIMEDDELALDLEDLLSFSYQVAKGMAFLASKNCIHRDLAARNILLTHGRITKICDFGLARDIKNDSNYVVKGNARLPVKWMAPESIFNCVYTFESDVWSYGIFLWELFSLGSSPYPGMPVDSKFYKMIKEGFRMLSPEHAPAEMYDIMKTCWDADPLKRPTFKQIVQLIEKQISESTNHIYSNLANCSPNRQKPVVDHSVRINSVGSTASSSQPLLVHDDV

Each molecule was assayed against c-Kit (Homo sapiens (Human), UniProt P10721) (assay: FRET-based Z'-Lyte kinase assay, c-kit). Conditions: 300 μM ATP.
Format: biochemical

Row | SMILES | IC50
1 | C[C@@H]1CN(c2cncnc2)Cc2cc(NC(=O)c3cc(CN4CCN(C)CC4)cc(C(F)(F)F)c3)ccc21 [Example 39, (S)—N-(4-methyl-2-(pyrimidin-5-yl)-1,2,3,4-tetrahydroisoquinolin-7-yl)-3-((4-methylpiperazin-1-yl)methyl)-5-(trifluoromethyl)benzamide] | > 10 µM
2 | C[C@H]1CN(c2cncnc2)Cc2cc(NC(=O)c3cc(CN4CCN(C)CC4)cc(C(F)(F)F)c3)ccc21 [Example 40, (R)—N-(4-methyl-2-(pyrimidin-5-yl)-1,2,3,4-tetrahydroisoquinolin-7-yl)-3-((4-methylpiperazin-1-yl)methyl)-5-(trifluoromethyl)benzamide] | > 10 µM
3 | CC1CN(c2cncnc2)Cc2cc(NC(=O)c3cc(CN4CCN(C)CC4)cc(C(F)(F)F)c3)ccc21 (stereo not drawn) [Example 2, N-(4-methyl-2-(pyrimidin-5-yl)-1,2,3,4-tetrahydroisoquinolin-7-yl)-3-((4-methylpiperazin-1-yl)methyl)-5-(trifluoromethyl)benzamide] | > 10 µM
